The values that follow are results of earlier work, collected in patent US7045339B2, “Electron donors for chlorinated solvent source area bioremediation” (SRP Technologies, Inc., priority 2002, dated 2006).

The conditions of the data set: surfactant concentration 1%; cited from earlier work.

Turning to Nonylphenol ethoxylate, the “PCE Solubilized” value is listed as 1,300 mg/l.
